What is called IC50 is the point on the concentration scale where inhibition reaches its midpoint. High values mean lower potency, low ones higher potency.

By UniProt entry, the sequences of proteins in these tests, tags left out. Residues count along the entry.
UniProt P00740, 227-461 limits assumed: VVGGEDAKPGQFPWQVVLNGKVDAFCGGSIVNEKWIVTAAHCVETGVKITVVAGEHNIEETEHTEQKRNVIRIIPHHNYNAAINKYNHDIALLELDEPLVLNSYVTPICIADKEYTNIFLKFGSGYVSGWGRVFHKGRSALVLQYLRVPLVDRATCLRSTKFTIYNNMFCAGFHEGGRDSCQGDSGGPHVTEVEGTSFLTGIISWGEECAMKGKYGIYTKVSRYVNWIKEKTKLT
UniProt P00740, 47-191 limits assumed: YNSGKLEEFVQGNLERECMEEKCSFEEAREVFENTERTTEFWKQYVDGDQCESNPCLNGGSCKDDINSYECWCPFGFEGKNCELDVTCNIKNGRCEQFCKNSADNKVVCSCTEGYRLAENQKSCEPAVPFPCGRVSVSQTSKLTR

The target in the experiment is Coagulation factor IX (Homo sapiens, UniProt P00740).

Each structure is given as a SMILES string.

Consider `Cc1ccc2c(c1)c(CCC(N)=O)c1n2C[C@@](NC(=O)c2ccc(-n3cnnc3)cc2Cl)(c2ccccc2)CC1`, for which 2.55 nM corresponded to half-maximal inhibition (IC50). The figure for `Cc1ccc2c(c1)c(C(=O)O)c1n2C[C@@](NC(=O)c2ccc(-n3cnc(C)n3)cc2Cl)(c2ccccc2)CC1` is 1.03 nM.

Values taken from ChEMBL document CHEMBL5727194, “Factor IXa inhibitors” (2019).
